Values of other authors in paper PMC4584289.

Target: STRA6 (Homo sapiens) (UniProt Q9BX79)

Substance: RBP (from UniProt P02753)
- Kd: 59 nM
